Source: PMC4682846 (PLoS ONE, 2015)

Target: T1, fumarase D (FumD) (Escherichia coli, UniProt Q8X999)
T1 construct: gene fumA

O=C(O)/C=C/C(=O)O [Fumarate]
Km: 900 ± 100 µM
